The assay concerns SLC34A2-ROS dependent signaling pathways in the HCC78 cells.

On to `C[C@@H](Oc1cc(-c2cnn(C3CCNCC3)c2)cnc1N)c1c(Cl)ccc(F)c1Cl` [Crizotinib, 3-[(R)-1-(2,6-dichloro-3-fluoro-phenyl)-ethoxy]-5-(1-piperidin-4-yl-1-H -pyrazol-4-yl)-pyridin-2-ylamine], for which the “activated caspase-3 levels” value (3-hour of drug treatment, Western Blot) was “significant dose-dependent induction”. Also, the “ROS phosphorylation (activation loop) and downstream SHP2, STAT3, AKT and ERK1/2” value (3 hours of drug treatment, immunoblot) was “dose dependency inhibited”.

Source of the values: patent EP2764866A1, “Inhibitors of nedd8-activating enzyme” (IP Gesellschaft für Management mbH, priority 2013, dated 2014).
